Experimental data: paper PMC4834639, “Steroid binding to Autotaxin links bile salts and lysophosphatidic acid signalling” (Nature Communications, 2016)

Target: hATX (Homo sapiens, UniProt Q13822)
Conditions: LPC(18:1) substrate; result in words

## C[C@H](CCC(=O)O)[C@H]1CC[C@H]2[C@@H]3[C@@H](O)C[C@@H]4C[C@H](O)CC[C@]4(C)[C@H]3CC[C@]12C [UDCA, Ursodeoxycholic acid]
  effect on ATX-mediated LPC hydrolysis: did not significantly change potency
